Test results: patent US9095126B2, “Targeting TGF-β as a therapy for Alzheimer's disease” (Yale University, priority 2008, dated 2015)

Assays:
Format in all cases: cell-based, mouse
[1] = tested on: TGF-β-activated Smad2/3 signaling; assay: Western blot for phosphorylated Smad2/3 (canonical TGF-β-activated signaling) in primary macrophages/microglia; details: wild-type peripheral macrophages, 30 min; TGF-β1 5 ng/mL alone, BMP-2 50-200 ng/mL or BMP-4 12.5-50 ng/mL (FIG. 12B)
Protocol: (§1) Cortical microglia were isolated from neonatal (1-2 day-old) CD11c-DNR or wild-type C57BL/6 mice according to previously published methods (Tan et al., 1999 Science 286: 2352-2355; Town et al., 2006 J. Immunol, 176: 3804-3812), Briefly, brains were isolated under sterile conditions and cerebral cortices were incubated in tripsin-EDTA (Invitrogen-Gibco) for 15 min at 37° C. Complete RPMI 1640 medium (supplemented with 10% FCS and 1 mM penicillin-streptomycin) was then added and brains were dissociated by trituration. Subsequently, cerebral cortex material was plated in 25 cm^2 flasks (Fisher Scientific), and the media was changed every 2-3 days. […] The following morning, MΦ were rinsed four times in ambient temperature PBS and fresh medium was added, Cultures of microglia and peripheral MΦ were both >95% pure as determined by immunofluorescent staining with CD11b and CD45 antibodies. […] Protein concentration was determined using the Bradford method, and aliquots corresponding to 50 μg of protein were run out on 12% Nu-PAGE™ polyacrylamide gels (Invitrogen) and proteins were transferred electrophoretically to Immobilon-P polyvinylidene difluoride membranes (Millipore). […]

[2] = tested on: bone morphogenic protein-activated Smad1/5/8 signaling; assay: Western blot for phosphorylated Smad1/5/8 (alternate bone morphogenic protein-activated signaling) in peripheral macrophages; details: wild-type peripheral macrophages
Protocol: as §1

[3] = tested on: p21-activated kinase 2 (PAK2); assay: Western blot for phosphorylated PAK2 in peripheral macrophages; details: wild-type peripheral macrophages, 30 min; TGF-β1 5 ng/mL alone, BMP-2 50-200 ng/mL or BMP-4 12.5-50 ng/mL (FIG. 12B)
Protocol: Cortical microglia were isolated from neonatal (1-2 day-old) CD11c-DNR or wild-type C57BL/6 mice according to previously published methods (Tan et al., 1999 Science 286: 2352-2355; Town et al., 2006 J. Immunol, 176: 3804-3812), Briefly, brains were isolated under sterile conditions and cerebral cortices were incubated in tripsin-EDTA (Invitrogen-Gibco) for 15 min at 37° C. Complete RPMI 1640 medium (supplemented with 10% FCS and 1 mM penicillin-streptomycin) was then added and brains were dissociated by trituration. Subsequently, cerebral cortex material was plated in 25 cm^2 flasks (Fisher Scientific), and the media was changed every 2-3 days. […] The following morning, MΦ were rinsed four times in ambient temperature PBS and fresh medium was added, Cultures of microglia and peripheral MΦ were both >95% pure as determined by immunofluorescent staining with CD11b and CD45 antibodies.
Microglia or peripheral MΦ from wild-type or CD11c-DNR mice were plated at 1×10^6 cells/well in 6-well tissue culture plates (BD Biosciences-Falcon) containing complete RPMI 1640 media or complete DMEM, respectively. […] Protein concentration was determined using the Bradford method, and aliquots corresponding to 50 μg of protein were run out on 12% Nu-PAGE™ polyacrylamide gels (Invitrogen) and proteins were transferred electrophoretically to Immobilon-P polyvinylidene difluoride membranes (Millipore). […]

B1: BMP-2: recombinant bone morphogenic protein (BMP)-2 (protein, UniProt P12643 283-396, looked up)
Bone morphogenetic protein 2: QAKHKQRKRLKSSCKRHPLYVDFSDVGWNDWIVAPPGYHAFYCHGECPFPLADHLNSTNHAIVQTLVNSVNSKIPKACCVPTELSAISMLYLDENEKVVLKNYQDMVVEGCGCR
Smad2/3 phosphorylation [1]: did not impact
ratio of pSmad1/5/8 to pSmad2/3 ([2]; BMP monotreatment compared with TGF-β1 treatment alone): increased
Smad1/5/8 phosphorylation ([2]; 30 min, TGF-β1 5 ng/mL alone, BMP-2 50-200 ng/mL or BMP-4 12.5-50 ng/mL (FIG. 12B)): promoted
PAK2 phosphorylation [3]: promoted
